Some compounds may have been tested in ways that are not shown here.
Experiment: Pharmacokinetics of L-97-1 following i.v. administration
Settings: rats
Experimental: Treatment is initiated at either 12 or 24 hours post-infection. L-97-1 is administered as a continuous i.v. infusion for 8 hours/day for up to 72 hours, depending upon time of sacrifice and necropsy. Based on pharmacokinetic data following i.v. administration, the plasma half life of L-97-1 in rats is 30-60 minutes. L-97-1 will be given as an i.v treatment to obtain adequate plasma levels. Ciprofloxacin is administered b.i.d. by intravenous injection for up to 72 hours, depending upon time of sacrifice and necropsy, as set forth in Table 1.

## CCCn1c(=O)c2c(nc(Cc3ccccc3)n2CCN(CC)CCO)n(CCc2ccc(N)cc2)c1=O
  plasma half life: 30 to 60 min
